# Data from PubChem BioAssay AID1963315 (National Center for Advancing Translational Sciences (NCATS), 2024).
# Chains of the proteins cited; added tags and fusions are not shown.
# UniProt P00519, whole entry, looked up: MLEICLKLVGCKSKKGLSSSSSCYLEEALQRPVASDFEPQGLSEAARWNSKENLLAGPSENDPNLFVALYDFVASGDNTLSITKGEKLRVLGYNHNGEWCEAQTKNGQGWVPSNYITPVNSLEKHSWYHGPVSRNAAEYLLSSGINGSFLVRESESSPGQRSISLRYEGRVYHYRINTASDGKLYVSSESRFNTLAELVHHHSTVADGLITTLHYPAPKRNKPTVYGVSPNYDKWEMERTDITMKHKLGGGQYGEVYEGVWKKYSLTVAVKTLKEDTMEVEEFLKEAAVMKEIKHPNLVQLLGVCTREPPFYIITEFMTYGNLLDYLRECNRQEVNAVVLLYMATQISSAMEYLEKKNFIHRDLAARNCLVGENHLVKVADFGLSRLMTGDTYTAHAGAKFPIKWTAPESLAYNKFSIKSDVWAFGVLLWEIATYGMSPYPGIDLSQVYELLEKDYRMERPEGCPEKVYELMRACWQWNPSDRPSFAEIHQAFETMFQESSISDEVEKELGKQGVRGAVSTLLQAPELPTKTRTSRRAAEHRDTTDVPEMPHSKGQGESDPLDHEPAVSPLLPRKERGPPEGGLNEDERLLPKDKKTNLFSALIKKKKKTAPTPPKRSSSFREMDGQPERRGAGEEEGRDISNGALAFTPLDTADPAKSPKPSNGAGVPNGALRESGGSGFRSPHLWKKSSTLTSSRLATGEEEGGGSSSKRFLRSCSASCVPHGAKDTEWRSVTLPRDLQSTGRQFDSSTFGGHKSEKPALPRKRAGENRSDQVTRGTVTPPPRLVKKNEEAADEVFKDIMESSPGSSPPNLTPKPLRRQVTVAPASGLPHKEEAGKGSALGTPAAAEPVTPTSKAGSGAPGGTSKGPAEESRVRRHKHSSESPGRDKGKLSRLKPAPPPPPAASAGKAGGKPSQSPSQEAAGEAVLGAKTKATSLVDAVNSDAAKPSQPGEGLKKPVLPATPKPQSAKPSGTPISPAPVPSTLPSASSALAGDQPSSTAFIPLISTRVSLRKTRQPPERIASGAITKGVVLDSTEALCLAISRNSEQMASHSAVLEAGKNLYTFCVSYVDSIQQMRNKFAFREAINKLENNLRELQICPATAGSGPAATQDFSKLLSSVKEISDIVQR
# Only a part is listed here, and it is no random draw. Results filed as inconclusive are left out. Activity calls are given as the source filed them. Calls come from the whole dose curve.
# Target: Tyrosine-protein kinase ABL1 (Homo sapiens) (UniProt P00519)
# Assay: ABL1 kinase (ABL1-N-HiBiT) SDR gain of signal screen
# Conditions: Purified ABL1-N-HiBiT enzyme, Nano-Glo HiBiT luminescence, 30 min compound incubation
# From the text: National Center for Advancing Translational Sciences (NCATS),
# National Institute of Health (NIH), Maryland
# Discovery and optimization of novel protein-binding ligands underlies many of the methods and applications of biology, drug discovery, clinical diagnostics, and environmental toxicology. Assays for detecting the interaction of, for example, a molecule with a macromolecular target also referred to here as the target of interest (TOI) is dependent on a compatible output technology. Depending on the nature and knowledge surrounding the TOI, whether a receptor, enzyme, regulatory subunit or scaffold, or a sequence-defined nucleic acid folded into a complex tertiary structure, assay strategies can vary widely.
# Here we exploit ligand-biased changes in the structural dynamics of the target protein to control reporter alpha complementation allowing a non-competitive, non-functional, non-separation measure of ligand-target interaction. […]
# SEQUENCE No. (e.g., 1, 2, 3, etc.); […] (e.g., C. elegans, Compounds, Incubation, Read, etc.); VALUE and DESCRIPTION. […]
# 6. […] (SDR assay) Luminescence measured using CCD-based camera (ViewLux) with settings as follows: Exposure, 1 sec; Gain, High; Speed, Slow; Binning, 2X. […]
smiles,measurement,value
Cc1ccc(NC(=O)c2ccc(CN3CCN(C)CC3)cc2)cc1Nc1nc(-c2cccnc2)cs1,Potency,active: 807 nM
